Data from patent US20240408215A1, “USE OF DIAZIRINE LINKER FOR DRUG CONJUGATES” (HELMHOLTZ ZENTRUM MUNCHEN - DEUTSCHES FORSCHUNGSZENTRUM FUR …, priority 2021, published 2024).

Settings: LC-MS after 20 min UV light irradiation (FIG. 1)

- release of the native form of Naproxen upon UV-light irradiation: demonstrated
Substance: (2S,2′S)-bis(2-(6-methoxynaphthalen-2-yl)propanoate) [naproxen dimer conjugate]
